Source: PubChem BioAssay (several laboratories)
HDAC3 inh – HDAC3 deacetylase inhibitors, primary screen, biochemical, fluorescence, cell-free homogeneous | Histone deacetylase 3 (Homo sapiens), O15379 | recombinant HDAC3, fluorogenic peptide/trypsin coupled | inhibition, % at 8.3 µM | hit rate 0.15% among 320,000; in the data active = inhibition above about 26%, passing the limit was not always enough
MC4R barr agon – MC4R agonists recruiting beta-arrestin, primary screen, cell-based, luminescence, agonist arm of biased-ligand search. U2OS MC4R beta-arrestin complementation; percent of melanotan II response, DMSO zero. hit rate 0.98% among 360,000. activation, % at 8.9 µM. AID 540308, 2011;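 active = activation above a per-plate cutoff, the mean activation of sample wells on that plate plus 3 SD, cut at about 8% in these data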
Yeast UUG start – modulators of start codon recognition fidelity in yeast; AID 602363; activity score, % at 18.7 µM; S. cerevisiae UUG-firefly luciferase reporter, luminescence/redox ratio; actives 0.13% (n = 350,000);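 active = replicate mean at a twofold rise or more, about +100% in these data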;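 note: firefly luciferase made from a UUG start codon reports start codon fidelity; reporter light over untreated wells divided by growth signal over untreated wells; some hits fall short of that in this replicate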
MC4R antagonist – MC4R antagonists of cAMP signaling, primary screen, cell-based, TR-FRET, antagonist arm of biased-ligand search; AID 540295, 2011; hit rate 0.48% among 360,000; MC4R-expressing cells, MTII-stimulated cAMP, LANCE TR-FRET; Melanocortin receptor 4 (Homo sapiens), P32245; inhibition, % at 6.5 µM;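 active = inhibition above its plate's cutoff, the mean of tested wells on that plate plus 3 SD, cut at about 29% in these data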;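 also: 0% = Melanotan II alone and 100% = Melanotan II plus saturating MCL0020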
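Material – human MC4R-expressing U2OS cells · Repeats – no replicates · Detection – TR-FRET with Eu-cAMP and labeled anti-cAMP, 671 nm · Times – compound 30 min, challenge 1 h, detection 1 h · Compound – single nominal compound dose of 6.5 µM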
NALP1 inh – NALP1 inflammasome inhibitors in reconstituted yeast, colorimetric, S. cerevisiae, triplicate retest | S. cerevisiae NALP1/ASC/caspase-1 growth, X-gal OD620, 72 h | inhibition, % at 10 µM | hit rate 0.61% among 280,000 | AID 2071, 2009; in the data active = inhibition mostly above about 24%, no sharp cut-off; inactive = mostly below about 32%
ALR H2O2 inh – inhibitors of human ALR sulfhydryl oxidase, primary screen, biochemical, H2O2 detection, HRP-luminol luminescence, single point; FAD-linked sulfhydryl oxidase ALR (Homo sapiens), P55789; purified ALR, DTT oxidation; inhibition, % (concentration not given with the values); AID 485317, 2010; actives 3.8% (n = 290,000);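 active means mean and each replicate at 75% or more; inconclusive means only one of the two met; inactive means neither met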;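 further: stock transfer was 7.5 nL into about 7.5 µL; 0% = neutral wells and 100% = wells with inactivated enzyme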
The depositor's hits bear a star; nt = no result. In the library only some 4.2% were active in any assay of this set; here they are far more common.

Protein sequences, listed by entry. Tags and fused reporters are not part of them.
Melanocortin receptor 4 (Homo sapiens), P32245, UniProt P32245, whole entry, looked up: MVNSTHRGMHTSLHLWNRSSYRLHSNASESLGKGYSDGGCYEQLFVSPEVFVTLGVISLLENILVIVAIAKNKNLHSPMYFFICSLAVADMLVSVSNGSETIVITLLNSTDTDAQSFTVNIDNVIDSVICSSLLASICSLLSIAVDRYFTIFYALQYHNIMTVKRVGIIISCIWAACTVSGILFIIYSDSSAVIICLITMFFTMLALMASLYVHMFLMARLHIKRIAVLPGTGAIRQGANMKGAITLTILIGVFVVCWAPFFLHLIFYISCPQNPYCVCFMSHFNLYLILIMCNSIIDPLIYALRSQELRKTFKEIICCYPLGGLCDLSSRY

1. C[C@H]1CN([C@@H](C)CO)C(=O)c2cc(NC(=O)Cc3cn(C)c4ccccc34)ccc2O[C@H]1CN(C)Cc1ccc(C(=O)Nc2ccccc2N)cc1
2. C[C@@H]1CN([C@@H](C)CO)S(=O)(=O)c2ccc(C#Cc3cccnc3)cc2O[C@H]1CN(C)C(=O)CN(C)C
3. Cc1cccc(C)c1OCC(O)CN1CCC(CN2C(=O)c3cccc4cccc(c34)C2=O)CC1 (stereo not given)
4. C[C@@H]1CN([C@@H](C)CO)S(=O)(=O)c2ccc(C#CC3CC3)cc2O[C@H]1CN(C)CC1CCOCC1
5. FC(F)(F)c1ccccc1C1C2=C(Nc3ncnn31)c1ccccc1CCC2 (stereo not given)
6. C(=C1/CCCC2=C1Nc1ncnn1C2c1ccccc1)/c1ccccc1 (stereo not given)
7. CCC(=O)N[C@@H]1C=C[C@@H](CC(=O)NCc2ccc(OC)cc2)O[C@H]1CO
8. O=S(=O)(Nc1ccc(N2CCOCC2)cc1)c1ccc(Cl)s1
screen / no.,1,2,3,4,5,6,7,8
MC4R barr agon,nt,nt,-2,nt,nt,nt,nt,1
Yeast UUG start,6,0,-17,26,nt,nt,-8,3
HDAC3 inh,nt,nt,-10,nt,nt,0,nt,-5
MC4R antagonist,nt,nt,-3,nt,nt,nt,nt,6
NALP1 inh,nt,nt,43*,nt,4,-4,nt,-5
ALR H2O2 inh,nt,nt,-8,nt,nt,91*,nt,98*

9. CC(C)(C)CNc1cc(N2CCOCC2)ccc1[N+](=O)[O-]
10. Cc1ccc([N+](=O)[O-])cc1S(=O)(=O)Nc1ccc(OCC(=O)N2CCOCC2)cc1
11. O=S(=O)(Nc1ccc(N2CCCCC2)cc1)c1ccccc1
12. O=S(=O)(NN1CCOCC1)c1ccc(Cl)s1
13. O=[N+]([O-])c1ccc([N+](=O)[O-])c(Nc2ccc(N3CCOCC3)cc2)c1
14. Cc1ccc([N+](=O)[O-])cc1S(=O)(=O)Nc1ccc(N2CCOCC2)cc1
15. O=S(=O)(Nc1ccc(N2CCOCC2)cc1)c1ccccc1
16. C[C@H]1CN([C@@H](C)CO)S(=O)(=O)c2ccc(-c3cncnc3)cc2O[C@@H]1CN(C)C(=O)CN(C)C
screen / no.,9,10,11,12,13,14,15,16
MC4R barr agon,-4,-3,-1,2,-4,-5,-1,nt
Yeast UUG start,7,-8,10,-4,nt,nt,-5,1
HDAC3 inh,4,nt,5,0,12,2,1,nt
MC4R antagonist,0,6,7,-8,8,1,-2,nt
NALP1 inh,-6,4,8,7,-10,10,2,nt
ALR H2O2 inh,1,-3,61,-6,98*,99*,99*,nt

17. O=C(O)c1ccc(NS(=O)(=O)/C=C/c2ccccc2)cc1O
18. Cc1cc(S(=O)(=O)Nc2ccc(N3CCOCC3)cc2)ccc1Br
19. O=S(=O)(/C=C/c1ccccc1)Nc1ccc(N2CCOCC2)cc1
20. Cc1cc(C)c(S(=O)(=O)Nc2ccc(N3CCOCC3)cc2)c(C)c1
21. O=C(CC1CC1)N1[C@@H](CO)[C@@H]2c3ccccc3N(S(=O)(=O)c3ccc(F)cc3)C[C@@H]21
22. C[C@H](CO)N1C[C@H](C)[C@H](CN(C)Cc2ccc(C(=O)O)cc2)OCCCC[C@H](C)Oc2ccc(NC(=O)CCCN(C)C)cc2C1=O
23. C[C@@H]1CCCCO[C@@H](CN(C)S(=O)(=O)c2cccs2)[C@H](C)CN([C@@H](C)CO)C(=O)c2cc(NC(=O)Nc3ccccc3)ccc2O1
24. O=C(/C=C/c1ccccc1)NCCC1=CCCCC1
screen / no.,17,18,19,20,21,22,23,24
MC4R barr agon,-2,3,-1,0,nt,nt,nt,0
Yeast UUG start,-19,-9,nt,-1,7,28,-13,-13
HDAC3 inh,11,-2,0,-2,nt,nt,nt,14
MC4R antagonist,0,16,4,18,nt,nt,nt,0
NALP1 inh,7,0,6,nt,nt,nt,nt,51*
ALR H2O2 inh,6,75,95*,86*,nt,nt,nt,1

25. Cc1cc(C)c2c(-n3cccc3)c(C(=O)NNS(=O)(=O)c3ccc(Br)cc3)sc2n1
26. Cc1ccc(-c2ccc3c(c2)O[C@H](CN(C)C)[C@H](C)CN([C@@H](C)CO)S3(=O)=O)cc1
27. CCOc1ccc(-c2cc(C(=O)NCCCN3CCN(CC)CC3)c3ccccc3n2)cc1
28. COc1ccc(Nc2cc(C(=O)NCCCN3CCN(C)CC3)c3ccccc3n2)c(OC)c1
29. Cc1ccc(S(=O)(=O)Nc2ccc3c(c2)C(=O)N([C@H](C)CO)C[C@H](C)[C@@H](CN(C)C(=O)C2CCCCC2)OCCCC[C@@H](C)O3)cc1
30. CCOC(=O)Nc1ccc2c(c1)N(CCCN(C)C)c1ccccc1CC2
31. CCOC(=O)Nc1ccc2c(c1)N(C(=O)OC)c1ccccc1CC2
32. ClC1(Cl)CC1Cn1c(C2CC2)nc2ccccc21 (stereo not given)
screen / no.,25,26,27,28,29,30,31,32
MC4R barr agon,0,nt,0,1,nt,2,0,-5
Yeast UUG start,20,-1,nt,-23,7,3,nt,nt
HDAC3 inh,5,nt,-20,3,nt,-3,2,-1
MC4R antagonist,6,nt,-5,0,nt,-1,3,-1
NALP1 inh,7,nt,31*,-2,nt,22,15,2
ALR H2O2 inh,88*,nt,-2,81*,nt,99*,7,nt

NALP1 inh, entries above that show a hit
3. Cc1cccc(C)c1OCC(O)CN1CCC(CN2C(=O)c3cccc4cccc(c34)C2=O)CC1 (stereo not given)
24. O=C(/C=C/c1ccccc1)NCCC1=CCCCC1
27. CCOc1ccc(-c2cc(C(=O)NCCCN3CCN(CC)CC3)c3ccccc3n2)cc1
screen / no.,3,24,27
MC4R barr agon,-2,0,0
Yeast UUG start,-17,-13,nt
HDAC3 inh,-10,14,-20
MC4R antagonist,-3,0,-5
NALP1 inh,43*,51*,31*
ALR H2O2 inh,-8,1,-2

Next part.
33. CCc1nc2ccccc2n1CC1CC1(Cl)Cl (stereo not given)
34. CC(C)CC#Cc1ccc2c(c1)O[C@@H](CN(C)C(=O)Cc1ccccc1)[C@@H](C)CN([C@H](C)CO)S2(=O)=O
35. CCOC(=O)c1cn(CC(=O)Nc2cccc(F)c2)nn1
36. N/C(=N\O)c1ccc(NC(=O)c2ccc(Br)o2)cc1
37. C=CCn1c(SCC(=O)OC)nc2sc3c(c2c1=O)CCN(C)C3
38. C=CCn1c(SCC(=O)NC)nc2sc3c(c2c1=O)CCC3
39. CCn1c(SCC(=O)NCCc2ccccc2)nc2sc3c(c2c1=O)CCN(C)C3
40. COC(=O)CSc1nc2sc3c(c2c(=O)n1-c1ccccc1)CCN(C)C3
screen / no.,33,34,35,36,37,38,39,40
MC4R barr agon,-1,nt,-2,-2,nt,-1,0,1
Yeast UUG start,-13,-4,nt,-4,nt,-12,-15,-5
HDAC3 inh,-7,nt,4,11,-2,0,-4,-1
MC4R antagonist,16,nt,13,1,nt,-6,0,-3
NALP1 inh,37*,nt,21*,25,4,2,14,17
ALR H2O2 inh,-1,nt,-7,98*,99*,-7,nt,100*

41. CCn1c(SCC(=O)c2ccccc2)nc2sc3c(c2c1=O)CCN(C)C3
42. C=CCNC(=O)CSc1nc2sc3c(c2c(=O)n1CCCOC)CCC3
43. C[C@@H]1CN([C@@H](C)CO)C(=O)Cc2cc(NS(C)(=O)=O)ccc2O[C@@H]1CN(C)Cc1ccc(Oc2ccccc2)cc1
44. Cc1noc(C)c1S(=O)(=O)N(C)C[C@H]1OCCCC[C@H](C)Oc2ccc(NC(=O)NC3CCCCC3)cc2C(=O)N([C@@H](C)CO)C[C@@H]1C
screen / no.,41,42,43,44
MC4R barr agon,-2,0,nt,nt
Yeast UUG start,-1,-8,10,7
HDAC3 inh,7,3,nt,nt
MC4R antagonist,10,0,nt,nt
NALP1 inh,3,10,nt,nt
ALR H2O2 inh,99*,81*,nt,nt
